Earlier results in patent US20020146823A1, “Method for promoting hematopoietic and mesenchymal cell proliferation and differentiation” (The University of Southern California, priority 1997, published 2002).

Target: T1, AT2 receptor (Homo sapiens, UniProt P50052)
T1 sequence (P50052 1-363): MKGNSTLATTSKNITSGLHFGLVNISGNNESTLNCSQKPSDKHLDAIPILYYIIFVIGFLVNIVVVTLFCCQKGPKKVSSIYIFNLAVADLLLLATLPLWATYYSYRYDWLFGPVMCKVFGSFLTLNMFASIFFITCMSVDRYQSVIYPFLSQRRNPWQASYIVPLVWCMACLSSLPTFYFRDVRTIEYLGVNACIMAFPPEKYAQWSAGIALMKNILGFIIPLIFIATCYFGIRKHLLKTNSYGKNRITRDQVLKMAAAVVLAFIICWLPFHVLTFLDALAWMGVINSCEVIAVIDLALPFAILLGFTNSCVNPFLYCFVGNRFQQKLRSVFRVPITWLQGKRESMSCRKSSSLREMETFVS
Conditions: experimental models tested; cited from earlier work

For “Asp-Arg-Val-Tyr-Ile-Xaa-Pro-Phe [(p-NH2-Phe)6-AII, reference compound]”, the binding characteristics is given as “comparable to AT2 antagonists”.
